Experimental data: publication PMC3095642, “New Synthetic Thrombin Inhibitors: Molecular Design and Experimental Verification” (PLoS ONE, 2011)

Biological target: T1, Human thrombin (Homo sapiens, UniProt P00734)
T1 construct: Human thrombin (8.3 mg/ml) was obtained from Hematologic Technologies Inc; purchased Hematologic Technologies Inc. (Essex Junction, VT, USA)
Test: Thrombin induced hydrolysis of specific substrates in buffer system
Format: biochemical
Details: chromogenic substrate Tosyl-Gly-Pro-Arg-p-nitroanilide; calculated assuming competitive inhibition, KM 9.44 µM
Procedure: The kinetics of thrombin inhibition was determined from the hydrolysis reaction of a specific substrate by thrombin in the presence of the tested substances. The chromogenic substrate (Tosyl-Gly-Pro-Arg-p-nitroanilide) or fast fluorogenic substrate (BOC-Ala-Pro-Arg-AMC) was used.
Plate wells were filled with 20 mM HEPES (pH 8.0) containing 140 mM NaCl and 0.1% polyethylene glycol (molecular weight 6000 Da). Thereafter, substrate was sequentially added to each well (final concentration, 100 µM), followed by the substance being tested (to a final concentration that was varied) and thrombin (final concentration, 0.2 nM). The hydrolysis rate was monitored spectrophotometrically at 405 nm (absorption maximum of the reaction product – p-nitroaniline), or fluorometrically (λex = 380 nm; λem = 440 nm for fluorescent reaction product 7-amino-4-methylcoumarine).
The initial rate was determined as the slope of the linear portion of the kinetic curve over the first 10 to 20 min of measurement. The inhibitory effect was expressed as the percentage reduction of the initial hydrolysis rate. The reaction rate in the absence of inhibitor was taken as 100%. Each result is the mean of two parallel determinations.
The inhibitor concentration was determined decreasing hydrolysis rate to 50% (IC50). […]

SMILES: CC1CNc2c(cccc2S(=O)(=O)N[C@@H](CCCNC(=N)N)C(=O)N2CC[C@@H](C)C[C@@H]2C(=O)O)C1 (stereo partly shown) [Argatroban, reference compound]
- Ki: 39 nM
